Assay [1] has as its target DPP9. Description: DPP9 IC50, purified enzyme, substrate Ala-Pro-p-nitroanilide. The class given is biochemical. The settings on record: read-out: IC50 DPP9.
Assay [2] deals with FAP (Mus musculus (Mouse), UniProt P97321). The experiment in a line: FAP IC50, purified enzyme, substrate Ala-Pro-p-nitroanilide. The class given is biochemical, murine.
Assay [3] concerns the target DPP IV (Homo sapiens (Human), UniProt P27487). The experiment in a line: DPP IV IC50, purified enzyme, substrate Gly-Pro-p-nitroanilide. Conditions: read-out: IC50 DPPIV. The class given is biochemical.

Sequences of proteins named here, by UniProt entry; tags and fusion partners are left off. Residues count along the entry.
UniProt P97321, 26-761 limits assumed: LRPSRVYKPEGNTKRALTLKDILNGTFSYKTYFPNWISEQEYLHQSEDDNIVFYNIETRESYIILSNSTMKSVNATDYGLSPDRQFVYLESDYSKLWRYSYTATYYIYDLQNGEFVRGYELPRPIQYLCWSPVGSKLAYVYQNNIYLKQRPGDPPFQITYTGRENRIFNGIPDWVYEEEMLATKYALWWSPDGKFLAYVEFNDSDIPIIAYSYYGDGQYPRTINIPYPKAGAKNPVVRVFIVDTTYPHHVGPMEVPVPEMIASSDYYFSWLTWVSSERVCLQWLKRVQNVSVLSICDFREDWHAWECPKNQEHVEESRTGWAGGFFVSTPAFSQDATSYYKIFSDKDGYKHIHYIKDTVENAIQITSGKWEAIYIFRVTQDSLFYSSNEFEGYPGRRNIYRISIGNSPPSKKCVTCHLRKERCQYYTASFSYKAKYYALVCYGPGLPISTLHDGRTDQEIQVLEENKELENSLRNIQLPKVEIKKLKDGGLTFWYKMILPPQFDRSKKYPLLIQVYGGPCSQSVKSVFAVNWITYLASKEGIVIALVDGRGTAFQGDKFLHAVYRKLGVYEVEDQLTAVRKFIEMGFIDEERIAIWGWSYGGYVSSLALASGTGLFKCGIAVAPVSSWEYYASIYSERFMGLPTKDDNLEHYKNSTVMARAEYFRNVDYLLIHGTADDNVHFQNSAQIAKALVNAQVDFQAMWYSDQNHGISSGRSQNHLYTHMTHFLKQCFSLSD
UniProt P27487, whole entry: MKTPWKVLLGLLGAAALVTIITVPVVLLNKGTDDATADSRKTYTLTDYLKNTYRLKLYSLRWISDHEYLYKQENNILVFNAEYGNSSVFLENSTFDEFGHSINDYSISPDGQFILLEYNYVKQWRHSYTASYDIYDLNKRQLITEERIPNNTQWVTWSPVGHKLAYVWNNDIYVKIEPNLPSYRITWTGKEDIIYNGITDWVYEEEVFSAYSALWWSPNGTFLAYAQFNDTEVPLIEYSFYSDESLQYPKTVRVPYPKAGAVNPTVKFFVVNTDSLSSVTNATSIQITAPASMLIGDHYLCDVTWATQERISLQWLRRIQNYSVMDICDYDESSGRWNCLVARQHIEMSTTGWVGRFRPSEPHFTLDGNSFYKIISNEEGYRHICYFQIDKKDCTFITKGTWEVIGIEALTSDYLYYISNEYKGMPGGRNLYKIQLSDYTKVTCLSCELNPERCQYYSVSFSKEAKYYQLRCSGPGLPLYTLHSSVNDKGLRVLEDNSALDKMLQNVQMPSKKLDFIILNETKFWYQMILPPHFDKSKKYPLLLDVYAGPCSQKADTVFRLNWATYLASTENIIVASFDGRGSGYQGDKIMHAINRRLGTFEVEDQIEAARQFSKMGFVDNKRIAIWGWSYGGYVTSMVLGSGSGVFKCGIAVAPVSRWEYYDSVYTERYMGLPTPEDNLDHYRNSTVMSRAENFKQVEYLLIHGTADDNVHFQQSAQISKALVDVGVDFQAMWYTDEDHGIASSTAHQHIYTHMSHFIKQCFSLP

Some results are limits rather than exact numbers.

For `N#C[C@@H]1CCCN1C(=O)CNC(=O)c1c[nH]c2ccccc12`, the IC50 (commonly the concentration that gives 50% inhibition) in assay [1] was over 25 µM.

Regarding `N#C[C@@H]1CCCN1C(=O)CNC(=O)c1cc2ccccc2[nH]1`, the Selectivity index FAP/PREP in assay [2] was over 7. Also, in assay [1], the IC50 was over 100 µM. As for `N#C[C@@H]1CCCN1C(=O)CNC(=O)c1ccnc2[nH]ccc12`, the half-maximal inhibitory concentration (IC50) is 0.04 µM in assay [2] (read-out: IC50 FAP), over 100 µM in assay [3] and over 100 µM in assay [1].

As for `N#C[C@@H]1CCCN1C(=O)CNC(=O)c1cccc2ccccc12`, the IC50 in assay [1] is over 100 µM.
